Assay results taken from patent US20240374573A1, “IMIDAZOLE CONTAINING COMPOUNDS, DERIVATIVES THEREFORE, AND USES THEREOF” (AglaeaPharma Inc., priority 2023, published 2024).

Protein sequences, listed by entry. Tags and fused reporters are not part of them.
UniProt P08913, whole entry: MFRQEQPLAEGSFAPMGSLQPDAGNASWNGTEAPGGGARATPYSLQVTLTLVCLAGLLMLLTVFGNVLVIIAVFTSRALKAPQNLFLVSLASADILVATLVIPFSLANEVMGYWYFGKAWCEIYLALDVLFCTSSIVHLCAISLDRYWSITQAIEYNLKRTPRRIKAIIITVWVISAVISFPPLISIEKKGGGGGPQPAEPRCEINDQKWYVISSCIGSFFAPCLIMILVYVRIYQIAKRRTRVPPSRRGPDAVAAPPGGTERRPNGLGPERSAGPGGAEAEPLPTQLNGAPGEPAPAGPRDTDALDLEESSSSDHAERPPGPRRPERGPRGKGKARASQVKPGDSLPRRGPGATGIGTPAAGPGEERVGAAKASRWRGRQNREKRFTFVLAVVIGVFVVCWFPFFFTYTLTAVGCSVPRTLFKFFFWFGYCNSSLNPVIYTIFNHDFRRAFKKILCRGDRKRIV

Target: α2AAR (α2A-adrenergic receptor) (Homo sapiens, UniProt P08913)
Assay: α2AAR FLIPR assay (agonist activity)
Assay type: cell-based
Conditions: read-out: α2A agonist activity (EC50), α2AAR cell line hosted in HEK293 cells, tested form: TFA

Cc1cccc(C(c2cccc(NC(=O)CC3CCOC3)c2)c2c[nH]cn2)c1C (single isomer, unassigned)
EC50: 10 to 50 nM
